Data on one compound can be found in ChEMBL document CHEMBL5223086, “Recent Progress and Clinical Development of Inhibitors that Block MDM4/p53 Protein-Protein Interactions” (J Med Chem, 2021).

Chains of the proteins cited; added tags and fusions are not shown.
UniProt Q00987, whole entry, looked up: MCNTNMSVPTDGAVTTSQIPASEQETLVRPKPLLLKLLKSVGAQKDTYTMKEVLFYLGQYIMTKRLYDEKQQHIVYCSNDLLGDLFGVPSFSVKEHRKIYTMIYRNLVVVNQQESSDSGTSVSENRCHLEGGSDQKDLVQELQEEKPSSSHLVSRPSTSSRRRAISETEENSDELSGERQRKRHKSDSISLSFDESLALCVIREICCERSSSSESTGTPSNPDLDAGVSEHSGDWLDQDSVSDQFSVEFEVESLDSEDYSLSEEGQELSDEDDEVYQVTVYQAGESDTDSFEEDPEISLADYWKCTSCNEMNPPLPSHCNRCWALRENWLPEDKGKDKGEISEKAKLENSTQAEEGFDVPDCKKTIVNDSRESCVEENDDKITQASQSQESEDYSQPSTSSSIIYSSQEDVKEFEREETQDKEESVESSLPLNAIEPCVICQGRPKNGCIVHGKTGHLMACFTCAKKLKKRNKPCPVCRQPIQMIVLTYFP

For the assay, the target named is E3 ubiquitin-protein ligase Mdm2 (Homo sapiens, UniProt Q00987). Kind of assay: Inhibition of MDM2 assessed as fold change.

Take `COc1cc(C(=O)O)ccc1NC(=O)[C@@H]1N[C@@H](CC(C)(C)C)[C@](C#N)(c2ccc(Cl)cc2F)[C@H]1c1cccc(Cl)c1F` [IDASANUTLIN]: the fold change (FC) was greater than 100.
